The subject of one data set is CMV AD169IE2-YFP. Nature of the data set: in vitro. It counts as cell-based, Human cytomegalovirus. As to conditions: MRC5 cells.
A short description of data set [1]: CC50 / cell viability by NucGreen staining, MRC5 cells. Type of data set: cell-based. Conditions: human.

This is an account of results in publication PMC4324837 (Antiviral research, 2014).

In general, CC50 refers to the concentration that lowers cell viability or growth by half. A higher CC50 goes with better tolerance by the cells.

For the molecule `COc1ccc(C[C@H]2NC[C@H](O)[C@H]2OC(C)=O)cc1` [Anisomycin], the “Selective Ratio (CC50/EC50)” value in the data set with CMV AD169IE2-YFP is given as above 29. Further, in the data set on CMV AD169IE2-YFP (human, Selective Ratio (CC50/EC50)), the selectivity ratio was around 30. The half-maximal cytotoxic concentration (CC50) at 19 h in data set [1] was above 5 µM.
